Data as given in patent US11674950B2, “Methods determining and treating cellular resistance to ADP-rtbosylating toxin” (priority 2017, dated 2023).

System: SL-401 resistant CAL1 and THP1 clones
Assay: SL-401 cytotoxicity after pulsatile non-cytotoxic azacitidine treatment
Conditions: 4-week pulsatile azacitidine 300 nM 2d on/2d off; 6 CAL1 and THP1 clones

For `Nc1ncn([C@@H]2O[C@H](CO)[C@@H](O)[C@H]2O)c(=O)n1` [azacitidine, 5-azacytidine], the “reversal of SL-401 resistance” value was “fully reversed SL-401 resistance”.
